For this assay, the system named is purified kinase domains having ruxolitinib resistant mutations.

For `Cc1cnc(Nc2ccc(OCCN3CCCC3)cc2)nc1Nc1cccc(S(=O)(=O)NC(C)(C)C)c1` [fedratinib], the “resistance of purified kinase domains having ruxolitinib resistant mutations” value was “but not to fedratinib”.

The values above are taken from paper PMC4588578, “Targeting substrate-site in Jak2 kinase prevents emergence of genetic resistance” (Scientific Reports, 2015).
